Legend:
[1] = Spectral properties of selected fluorinated fluoresceins and rhodols; type: physicochemical
[2] = Photodecomposition on illumination in fluorometer; type: physicochemical; conditions: % of decreased fluorescence intensity after 33 minutes of illumination in fluorometer at wavelength of maximum excitation
Method: *% of decreased fluorescence intensity after 33 minutes of illumination in
fluorometer at wavelength of maximum excitation

[3] = pH titration of fluorophores (pKa); conditions: Table 1

Abs. ([1]; absorption maximum): 492 nm
Em. ([1]; emission maximum): 516 nm
ε × 10^-3 ([1]; extinction coefficient, value is ε × 10^-3): 82.0 cm^-1 M^-1
Quantum Yield ([1]; fluorescence quantum yield): 0.92
photodecomposition [2]: 17%
pKa [3]: 6.4
Substance: 5-(and-6)-carboxyfluorescein [reference compound]
